Values of other authors as cited in patent publication US12180215B2, “Substituted pyrrolo[3,4-d]imidazoles as JAK inhibitors” (HENAN MEDINNO PHARMACEUTICAL TECHNOLOGY CO., LTD., priority 2019, dated 2024).

Protein sequences, listed by entry. Tags and fused reporters are not part of them.
UniProt P29597, whole entry, species assumed: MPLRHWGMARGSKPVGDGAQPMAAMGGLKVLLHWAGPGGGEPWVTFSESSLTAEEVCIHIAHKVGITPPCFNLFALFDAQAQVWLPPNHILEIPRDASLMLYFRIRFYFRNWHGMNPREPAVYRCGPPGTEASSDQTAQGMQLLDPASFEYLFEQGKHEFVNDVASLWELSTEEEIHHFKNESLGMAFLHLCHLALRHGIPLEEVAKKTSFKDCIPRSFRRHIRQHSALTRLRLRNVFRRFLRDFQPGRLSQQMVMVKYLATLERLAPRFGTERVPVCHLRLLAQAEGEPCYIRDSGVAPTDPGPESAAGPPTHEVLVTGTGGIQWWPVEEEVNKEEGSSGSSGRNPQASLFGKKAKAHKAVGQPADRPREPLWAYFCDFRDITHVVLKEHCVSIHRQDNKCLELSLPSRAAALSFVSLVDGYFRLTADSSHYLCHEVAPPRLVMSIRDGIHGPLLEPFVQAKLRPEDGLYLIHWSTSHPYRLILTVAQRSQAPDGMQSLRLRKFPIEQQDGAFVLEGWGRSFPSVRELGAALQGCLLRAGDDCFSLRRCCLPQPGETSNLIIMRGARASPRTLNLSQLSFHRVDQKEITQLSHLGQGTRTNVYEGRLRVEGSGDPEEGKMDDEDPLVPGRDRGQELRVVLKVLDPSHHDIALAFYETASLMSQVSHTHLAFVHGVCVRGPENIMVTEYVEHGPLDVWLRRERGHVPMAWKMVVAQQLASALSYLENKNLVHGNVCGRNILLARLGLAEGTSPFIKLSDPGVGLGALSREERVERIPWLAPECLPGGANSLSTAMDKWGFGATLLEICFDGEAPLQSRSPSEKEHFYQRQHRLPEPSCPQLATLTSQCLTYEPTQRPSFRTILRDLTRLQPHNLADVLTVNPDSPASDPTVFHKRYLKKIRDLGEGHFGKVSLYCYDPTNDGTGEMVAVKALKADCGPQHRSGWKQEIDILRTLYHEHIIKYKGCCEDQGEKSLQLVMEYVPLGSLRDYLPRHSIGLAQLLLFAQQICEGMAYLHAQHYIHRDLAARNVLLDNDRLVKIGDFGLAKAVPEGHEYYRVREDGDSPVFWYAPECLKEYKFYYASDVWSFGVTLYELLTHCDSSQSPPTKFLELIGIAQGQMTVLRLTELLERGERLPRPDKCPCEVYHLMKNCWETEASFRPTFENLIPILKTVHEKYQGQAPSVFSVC

Biological target: TYK2 (Homo sapiens, UniProt P29597)
Details: background section; cited from earlier work

Structure (SMILES): O=C(Nc1nc2cccc(-c3ccc(CN4CCS(=O)(=O)CC4)cc3)n2n1)C1CC1 [reference compound]
- IC50: 116 nM
